The values that follow are results of earlier work, collected in patent publication US6310273A, “Inhibiting apoptosis in plants using a baculovirus p35 protease inhibitor gene” (The Regents of the University of California, priority 1999, dated 2001).

This series has as its target T1, caspase-3 (CPP32, apopain, Yama) (Homo sapiens, UniProt P42574).
T1 construct: purchased BIOMOL Research Laboratories, Inc. AK-700
T1 sequence (P42574 29-175 limits assumed): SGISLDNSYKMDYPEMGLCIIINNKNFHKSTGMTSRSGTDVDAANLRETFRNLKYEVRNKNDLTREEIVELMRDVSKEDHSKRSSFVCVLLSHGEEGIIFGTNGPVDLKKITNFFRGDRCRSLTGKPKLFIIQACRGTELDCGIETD
T1 sequence (P42574 176-277 limits assumed): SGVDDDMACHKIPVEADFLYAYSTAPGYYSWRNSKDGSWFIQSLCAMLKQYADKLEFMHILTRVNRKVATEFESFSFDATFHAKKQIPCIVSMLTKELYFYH
Conditions: DEVD-p-nitroanilide cleavage, absorption at 405 nm; read-out: IC50, inhibition of caspase 3 substrate cleavage; cited from earlier work.

Regarding `CC(=O)N[C@@H](CC(=O)O)C(=O)N[C@@H](CCC(=O)O)C(=O)N[C@H](C(=O)N[C@H](C=O)CC(=O)O)C(C)C` [Ac-DEVD-CHO], the IC50 is 25 nM.
